Test [1] in a line: Screening of AS single mutant library for glucosylation of α-L-Rhap-OMe (HPLC). It is filed as biochemical. As to conditions: desired product α-D-Glcp-(1→3)-α-L-Rhap-OMe; sucrose and acceptor each 73 mM, 30° C., 24 h, microtiter format. The procedure:
The protocol was established to enable the rapid identification of clones able to glucosylate α-L-Rhap-OMe (formula II). To obtain higher amounts of enzymes and facilitate detection of glucosylated compounds upon HPLC screening, mutants were produced in 96-DeepWell Format plates. Storage microplates containing monomutants were thawed and replicated to inoculate a starter culture in 96-well microplates containing, in each well, 150 μL LB medium supplemented with ampicillin (100 μg/mL). After growth for 24 h at 30° C. under agitation (200 rpm), plates were duplicated into 96-Deep Well plates containing, in each well, 1.1 mL LB medium supplemented with ampicillin (100 μg/mL) and IPTG (1 mM) to induce GST-AS expression. Cultures were then grown for 24 h at 30° C. under agitation (200 rpm). […]
Efficiency of the glucosylation reaction was evaluated by HPLC analysis of the acceptor reaction product synthesized when using α-L-Rhap-OMe as acceptor using a Dionex P 680 series pump, a Shodex RI 101 series refractometer, a Dionex UVD 340 UV/Vis detector and an autosampler HTC PAL. […]
For each of the 7 selected positions, 19 single mutants were generated (corresponding to each possible amino acid change). […] Both sucrose consumption and disaccharide formation were determined in order to calculate the glucosylation rate defined as the molar ratio of monoglucosylated acceptor versus/sucrose consumed.

Test [2] is described as follows: Comparison of products synthesized by wild type and AS variant I228Y (HPAEC/HPLC). It is filed as biochemical. As to conditions: sole presence of sucrose, 146 mM, FIG. 7B. As to the method:
All assays were performed at 30° C. in 50 mM Tris buffer, pH=7.0. For the acceptor reactions, I228Y and wild type AS were tested on α-L-Rhap-OMe (formula II) used as acceptor.
Comparison of products synthesized by wild type and AS variant. Reactions were performed in the presence of 146 mM sucrose alone or supplemented with 146 mM acceptor. The purified wild-type or mutated GST/AS were employed at 0.5 U/mL. The reactions were stopped by heating at 95° C. for […]. The final mixture was centrifuged at 18 000 g for 5 min. Different carbohydrate analyses were performed to compare the product profiles synthesized by ASNPwt and AS variant (I228Y):
Soluble and insoluble oligosaccharides produced during the reaction were identified by HPAEC using a Dionex Carbo-Pack PA100 column at 30° C. Before analysis, the insoluble fraction was solubilised in KOH at a final total sugar concentration of 10 g/kg. Mobile phase (150 mM NaOH) was set at 1 mL/min flow rate with a sodium acetate gradient (going from 6 to 500 mM within 120 min). Detection was performed using a Dionex ED40 module with a gold working electrode and an Ag/AgCl pH reference. Note that α-L-Rhap-OMe (acceptor) and its derivatives are not oxidable products and thus are not detectable by HPAEC. Sucrose, glucose, fructose, α-L-Rhap-OMe (acceptor) and its derivatives (glucosylation products) were quantified by HPLC, as previously described.

B1: I228Y: 1G5A (N. polysaccharea amylosucrase, SEQ ID NO: 13) single mutant, isoleucine 228 replaced by tyrosine (protein, listed as Neisseria polysaccharea)
chain: SPNSQYLKTRILDIYTPEQRAGIEKSEDWRQFSRRMDTHFPKLMNELDSVYGNNEALLPMLEMLLAQAWQSYSQRNSSLKDIDIARENNPDWILSNKQVGGVCYVDLFAGDLKGLKDKIPYFQELGLTYLHLMPLFKCPEGKSDGGYAVSSYRDVNPALGTIGDLREVIAALHEAGISAVVDFIFNHTSNEHEWAQRCAAGDPLFDNFYYIFPDRRMPDQYDRTLREYFPDQHPGGFSQLEDGRWVWTTFNSFQWDLNYSNPWVFRAMAGEMLFLANLGVDILRMDAVAFIWKQMGTSCENLPQAHALIRAFNAVMRIAAPAVFFKSEAIVHPDQVVQYIGQDECQIGYNPLQMALLWNTLATREVNLLHQALTYRHNLPEHTAWVNYVRSHDDIGWTFADEDAAYLGISGYDHRQFLNRFFVNRFDGSFARGVPFQYNPSTGDCRVSGTAAALVGLAQDDPHAVDRIKLLYSIALSTGGLPLIYLGDEVGTLNDDDWSQDSNKSDDSRWAHRPRYNEALYAQRNDPSTAAGQIYQDLRHMIAVRQSNPRFDGGRLVTFNTNNKHIIGYIRNNALLAFGNFSEYPQTVTAHTLQAMPFKAHDLIGGKTVSLNQDLTLQPYQVMWLEIA
On to B1, for which, in test [1], the “glucosylation rate (molar ratio of monoglucosylated acceptor versus sucrose consumed)” value is 23%. Also, the “ability to elongate maltooligosaccharide chains and to synthesize insoluble polymers” value in test [2] is on record as “lost its ability”.
